Literature values, collected in paper PMC6004248 (Clinical cancer research : an official journal of the …, 2018).

Tested on: normal human epidermal keratinocytes
Conditions: in vitro; cited from earlier work

In the case of `C[C@@H](Oc1cc(-c2cnn(C3CCNCC3)c2)cnc1N)c1c(Cl)ccc(F)c1Cl` [crizotinib], the “effect on growth of normal human epidermal keratinocytes” value is given as “inhibits growth”.
